AlphaSeq binding of Ab-14 light chain variants to a spike HR2 peptide

The target is the same throughout: PDVDLGDISGINAS, from the HR2 region of SARS-CoV-2 spike.

Parent scFv Ab-14: VH joined to VL by a (GGGGS)3 linker. Changes lie in the light chain CDRs alone.
VH: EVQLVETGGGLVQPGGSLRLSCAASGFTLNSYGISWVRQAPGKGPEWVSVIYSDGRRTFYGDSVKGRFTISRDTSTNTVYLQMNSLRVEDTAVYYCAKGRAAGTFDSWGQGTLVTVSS
VL: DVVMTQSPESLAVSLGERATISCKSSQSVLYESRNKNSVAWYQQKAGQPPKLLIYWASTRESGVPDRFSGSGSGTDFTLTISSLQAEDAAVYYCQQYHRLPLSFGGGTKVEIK

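The starting antibody came from a phage panning campaign against this peptide. In library AAYL50, one, two or three CDR residues were substituted; doubles and triples were drawn at random. The scFvs were displayed on barcoded MATa yeast, the peptide on MATalpha yeast. Pairs that bind mate more often; barcode pairs of the diploids are counted by sequencing. Read counts were normalised to the haploid input and turned into Kd by a linear fit to BCL2-family pairs of known affinity, for each replicate. Mating was done three times.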

Positions count from residue 1 of the parent VL; R34P puts P in place of R. Each Kd is an estimate from the mating assay, the geometric mean of the replicates in which the pair was seen; lower is stronger. "no signal" marks a missing value. The strain was present, yet no cells mated with the target were sequenced in any replicate, which points to weak or no binding. In this assay the parent's reference entry averaged 4.4 nM; its copy inside this library read 48 nM. Empty control strains, which show no peptide, gave a signal in 18% of pairings with library AAYL50; the median was 15 µM and 95% of these signals were weaker than 970 nM. No background was subtracted.

| # | changes | Kd (apparent) | detected |
|---|---|---|---|
| 1 | R34P/K36W/Y97S | 4.7 nM | 3/3 |
| 2 | S33K/S62I | no signal | 0/3 |
| 3 | S33W/R99C/S103H | 120 nM | 3/3 |
| 4 | E32L/L100A/P101N | 110 µM | 1/3 |
| 5 | V39R/H98W/R99K | no signal | 0/3 |
| 6 | V29R/Y31S/A40E | no signal | 0/3 |
| 7 | K24P/A57L/P101W | no signal | 0/3 |
| 8 | N35H/S38D/Q95V | 9.8 µM | 2/3 |
| 9 | Y31S/V39M | 14 nM | 3/3 |
| 10 | T59N/R60W/Q95D | 78 µM | 3/3 |
| 11 | Q27R/L100V/S103A | 13 nM | 3/3 |
| 12 | V29S/S38P/S58V | 14 µM | 1/3 |
| 13 | S26V/Q95A | 830 nM | 3/3 |
| 14 | R60I/H98A/L102W | 14 µM | 2/3 |
| 15 | Y31H/S58E/L100D | 210 µM | 2/3 |
| 16 | N35Y/N37Q/Y97I | no signal | 0/3 |
| 17 | S28C/A57E/S58C | no signal | 0/3 |
| 18 | S26Y/S33C/H98P | 6.0 µM | 2/3 |
| 19 | Y97P/S103R | 2.5 µM | 1/3 |
| 20 | Q27T/N35T | 250 nM | 3/3 |
| 21 | S28M/S62R/S103F | 47 nM | 3/3 |
| 22 | S26E/S58K/S103R | 5.6 µM | 1/3 |
| 23 | N35Q/Q95L/L102W | 240 µM | 2/3 |
| 24 | L30N/W56A/R60E | 100 nM | 3/3 |
| 25 | Q27Y/S33F/L102H | no signal | 0/3 |
| 26 | A57F/P101Q/L102W | 190 µM | 1/3 |
| 27 | N35I/V39T/Q96A | 1.1 mM | 1/3 |
| 28 | R99Q/S103I | 5.2 nM | 3/3 |
| 29 | L30M/Y31R/S38F | 2.9 µM | 2/3 |
| 30 | K24T/S62T/Y97C | 45 nM | 3/3 |
| 31 | S26F/S28T/Y31Q | 16 nM | 3/3 |
| 32 | E32M/E61R/R99S | 2.6 µM | 3/3 |
| 33 | Y31C/S58E/L102A | 39 nM | 3/3 |
| 34 | V29A/R34W/N37T | 150 nM | 3/3 |
| 35 | V29T/W56C | 18 nM | 3/3 |
| 36 | S28G/K36D/Q96H | 15 nM | 3/3 |
| 37 | Q27E/E32I/S103G | 640 nM | 1/3 |
| 38 | K24N/S26I/Q96L | 150 nM | 3/3 |
| 39 | Q27D/R34C/W56T | no signal | 0/3 |
| 40 | S62F/L100P/S103L | no signal | 0/3 |
| 41 | V39P/A57H | no signal | 0/3 |
| 42 | A57H/S58V | no signal | 0/3 |
| 43 | S25W/N35Q | 9.2 nM | 3/3 |
| 44 | A57I/T59C/E61F | 34 µM | 2/3 |
| 45 | S26E/Q27T/S33D | 1.5 nM | 3/3 |
| 46 | K24H/V29G | 4.4 nM | 3/3 |
| 47 | E32Q/V39Q/S62A | 10 µM | 1/3 |
| 48 | E32W/N35P/T59W | 460 µM | 1/3 |
| 49 | K24L/W56S/S58E | 1.6 nM | 3/3 |
| 50 | K24D/L30S/E61N | no signal | 0/3 |
| 51 | K36Q/S58M/R99Q | 33 nM | 3/3 |
| 52 | Y31V/W56N/H98P | no signal | 0/3 |
| 53 | S58H/E61F/H98Y | no signal | 0/3 |
| 54 | V39R/R60I | no signal | 0/3 |
| 55 | N37R/Q95V/L102G | 390 µM | 1/3 |
| 56 | S26E/L30K/K36A | 55 nM | 3/3 |
| 57 | V39I/E61H | 260 nM | 3/3 |
| 58 | Q27D/W56I/Y97D | 4.3 µM | 2/3 |
| 59 | S25D/R34F | 400 nM | 3/3 |
| 60 | N35V/A57L/T59E | 280 nM | 3/3 |
| 61 | K24V/S26F/S33L | 370 µM | 2/3 |
| 62 | R34M/T59W/Y97A | 74 µM | 3/3 |
| 63 | S25T/E32H/A57H | 5.7 µM | 1/3 |
| 64 | K24M/E61N | 76 nM | 3/3 |
| 65 | S33R/A57I/Y97H | 1.3 mM | 1/3 |
| 66 | E32V/R34C/S62A | 15 µM | 3/3 |
| 67 | Q27Y/A57I/Q96K | no signal | 0/3 |
| 68 | K36P/S38T/Q95R | 1.0 µM | 1/3 |
| 69 | S25A/S28T/E61K | 1.3 µM | 2/3 |
| 70 | Y31I/W56P/S58A | 18 µM | 3/3 |
| 71 | S58E/S62G | 270 nM | 3/3 |
| 72 | S26C/R60N/Y97T | 8.9 mM | 1/3 |
| 73 | V29I/W56S | 1.2 nM | 3/3 |

6 of these entries, quoted again:

{"changes": "S58H/E61F/H98Y", "Kd (apparent)": "no signal", "detected": "0/3"}
{"changes": "Q27Y/S33F/L102H", "Kd (apparent)": "no signal", "detected": "0/3"}
{"changes": "A57I/T59C/E61F", "Kd (apparent)": "34 µM", "detected": "2/3"}
{"changes": "R34M/T59W/Y97A", "Kd (apparent)": "74 µM", "detected": "3/3"}
{"changes": "R99Q/S103I", "Kd (apparent)": "5.2 nM", "detected": "3/3"}
{"changes": "E32L/L100A/P101N", "Kd (apparent)": "110 µM", "detected": "1/3"}

From the AlphaSeq antibody data of Engelhart et al. 2022 (doi:10.1038/s41597-022-01779-4), copy in the FLAb collection.